The entries are a selection whose mix differs from that of the whole data set. Activity calls are given as the source filed them.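 Rule for the calls: active = activation more than six SD over the plate average, tested at 20 µM; inactive = the rest.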
biological target: Apelin receptor (Homo sapiens) (UniProt P35414); assay: APJ activation via beta-arrestin recruitment – CHO-K1 cells, PathHunter beta-arrestin, luminescence, primary screen (AID 2520); conditions: at 20 µM, active compounds read high, 0% DMSO wells, 100% apelin
Outline: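 Incubation: overnight seeding, 90 min compound at 25 °C, 1 h detection; test system: PathHunter CHO-K1 APJ (AGTRL-1) beta-arrestin reporter cells; amount: 1000 cells/well; doses: one dose, 20 µM compound, 1% DMSO; measured by: beta-gal luminescence; measure: agonist-driven arrestin binding to APJ; benchmarks: negative DMSO alone, positive Apelin-13 at 10 nM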

The chains behind the UniProt entries cited, without tags or fusion partners.
UniProt P35414, whole entry: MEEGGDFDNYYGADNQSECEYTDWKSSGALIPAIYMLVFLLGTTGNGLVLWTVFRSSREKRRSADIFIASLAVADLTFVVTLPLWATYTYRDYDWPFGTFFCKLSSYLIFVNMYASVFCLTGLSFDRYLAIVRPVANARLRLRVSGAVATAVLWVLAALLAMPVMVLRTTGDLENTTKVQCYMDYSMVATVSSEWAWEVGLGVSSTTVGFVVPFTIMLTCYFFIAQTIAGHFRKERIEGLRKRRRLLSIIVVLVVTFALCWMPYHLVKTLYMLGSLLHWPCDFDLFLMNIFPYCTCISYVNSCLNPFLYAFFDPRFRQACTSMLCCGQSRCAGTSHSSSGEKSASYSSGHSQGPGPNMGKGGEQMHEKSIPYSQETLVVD

Row | SMILES | activation
1 | CCC(=O)N(c1ccccc1)C1(COC)CCN(CCc2cccs2)CC1 | inactive: 0.54%
2 | CCC(=O)N(c1ccccc1)C1(COC)CCN(CCn2nnn(CC)c2=O)CC1 | inactive: -2.74%
